This note sets out measurements from US7332501B2, “Indol-3-yl-carbonyl-spiro-piperidine derivatives as V1a receptor antagonists” (Hoffmann-La Roche Inc., priority 2005, dated 2008).

Sequences of proteins named here, by UniProt entry; tags and fusion partners are left off.
UniProt P37288, whole entry: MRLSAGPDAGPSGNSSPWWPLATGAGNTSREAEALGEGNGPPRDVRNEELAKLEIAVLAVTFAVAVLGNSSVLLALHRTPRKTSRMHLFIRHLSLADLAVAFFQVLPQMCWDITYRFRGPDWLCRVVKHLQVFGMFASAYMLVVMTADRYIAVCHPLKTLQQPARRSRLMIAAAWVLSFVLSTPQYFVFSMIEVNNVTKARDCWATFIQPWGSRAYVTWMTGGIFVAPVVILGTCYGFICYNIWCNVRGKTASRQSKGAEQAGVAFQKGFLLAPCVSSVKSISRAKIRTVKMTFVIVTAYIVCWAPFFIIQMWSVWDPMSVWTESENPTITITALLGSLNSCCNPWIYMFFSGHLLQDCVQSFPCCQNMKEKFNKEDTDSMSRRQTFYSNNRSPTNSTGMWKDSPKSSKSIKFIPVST

This experiment concerns the target human V1a receptor (Homo sapiens, UniProt P37288). Kind of experiment: human V1a receptor binding (3H-Vasopressin SPA, HEK293 membranes). As to conditions: displacement of 4 nM 3H-Vasopressin, membranes of HEK293 cells transiently transfected with human V1a receptor; Ki from IC50 by Cheng-Prussoff.

Turning to `O=C(c1c[nH]c2cc(Cl)ccc12)N1CCC2(CC1)COc1ccccc12`, the Ki (commonly a dissociation constant, usually derived from enzyme kinetics or from competition with a known ligand) was determined as 15.8 nM.
